Measured values as given in patent US20020127717A1, “Preparation of replicating macrophages and use in diagnosis and therapy” (priority 2000, published 2002).

Experiments:
Type in all cases: cell-based
[1] = tested on: human Kupffer cell isolates (KC-1, KC-2, KC-3); experiment: DNA synthesis assay (3H-Thymidine), stimulation by growth factors, Kupffer cell isolates; parameters: key: ratio: uptake with stimulatory agent / uptake in medium alone
[2] = tested on: Bovine Capillary Endothelial Cells (BCE); experiment: DNA synthesis assay (3H-Thymidine), stimulation by growth factors, BCE
Protocol: (§1) DNA Synthesis Assay: DNA synthesis was determined by culturing the cells with ^3H-Thymidine as is standard in the art. The KC isolates used in the assay were at day 21 post liver isolation. The normal endothelial cells and foreskin fibroblasts were cultured in media consisting of RPMI-1640, fetal bovine serum 20% supplemented with specific factors as described in Nakamura S and Salahuddin SZ, Science 242: 426-430,1988. KC isolates were cultured as described above. Cells were harvested between 4 hours and 18 hours culture depending on the stimulatory agent used. A stimulation index was calculated by dividing radioactivity incorporated into cells with the stimulatory agent versus cells in culture medium alone.
(§2) Cultured Cells: Human umbilical vein endothelial cells (HUV-E) were prepared as described in Nakamura et al, Science 1988. Bovine capillary endothelial cells (BCE) were a gift from Dr. Peter Biberfeld of Karolinska Institute, Stockholm, Sweden. Normal human foreskin fibroblasts (HSF) were obtained from the American Type Tissue Culture Collection (ATCC), Rockville, Md. (CRL-1635).
(§3) Various growth factors were tested for their ability to stimulate growth of the human Kupffer cell isolates (KC-3) and other cell types. KC isolates used in this experiment were grown in culture for 21 days with MCG medium.

[3] = tested on: human Kupffer cell isolates (KC-1, KC-2, KC-3); experiment: DNA synthesis assay (3H-Thymidine), stimulation by growth factors, Kupffer cell isolates; parameters: key to Stimulation Index of Cultured Target cells: ratio: uptake with stimulatory agent / uptake in medium alone
Protocol: as §1, §3

[4] = tested on: Human Umbilical Vein Endothelial Cells (HUV-E); experiment: DNA synthesis assay (3H-Thymidine), stimulation by growth factors, HUVE
Protocol: as §1, §2, §3

[5] = tested on: Human Foreskin Fibroblast Cells (HSF); experiment: DNA synthesis assay (3H-Thymidine), stimulation by growth factors, HSF; details: HFS
Protocol: as §1, §2, §3

IL-2: IL-2 = Natural product, lot # 019, Genzyme Inc.
Stimulation Index of Cultured Target cells ([1]; KC-1, HC (hydrocortisone) +): 2.1
Stimulation Index of Cultured Target cells ([1]; KC-1, HC (hydrocortisone) −): 1.8
Stimulation Index of Cultured Target cells ([1]; KC-2, HC (hydrocortisone) +): 2.9
Stimulation Index of Cultured Target cells ([1]; KC-2, HC (hydrocortisone) −): 2.4
Stimulation Index of Cultured Target cells ([2]; HC (hydrocortisone) +): 2.8
Stimulation Index of Cultured Target cells ([2]; HC (hydrocortisone) −): 2.0
effect on DNA synthesis of KC isolates (in words) ([3]; KC isolates grown 21 days in MCG medium, summary of Table 3): weakly simulated DNA synthesis
Stimulation Index of Cultured Target cells ([3]; KC-3, HC (hydrocortisone) +): 2.8
Stimulation Index of Cultured Target cells ([3]; KC-3, HC (hydrocortisone) −): 2.8
Stimulation Index of Cultured Target cells ([4]; HC (hydrocortisone) +): 3.2
Stimulation Index of Cultured Target cells ([4]; HC (hydrocortisone) −): 2.8
Stimulation Index of Cultured Target cells ([5]; HC (hydrocortisone) +): 2.0
Stimulation Index of Cultured Target cells ([5]; HC (hydrocortisone) −): 2.0
